ChEMBL document CHEMBL4706672, “Discovery of a Napabucasin PROTAC as an Effective Degrader of the E3 Ligase ZFP91” (J Med Chem, 2021)
The source made the active and inactive calls. The calls are words filed in the database; no cut-off is given here.

Sequences of proteins named here, by UniProt entry; tags and fusion partners are left off. A change or cut given only in a name is not applied to a line headed by its entry.
UniProt P40763, whole entry: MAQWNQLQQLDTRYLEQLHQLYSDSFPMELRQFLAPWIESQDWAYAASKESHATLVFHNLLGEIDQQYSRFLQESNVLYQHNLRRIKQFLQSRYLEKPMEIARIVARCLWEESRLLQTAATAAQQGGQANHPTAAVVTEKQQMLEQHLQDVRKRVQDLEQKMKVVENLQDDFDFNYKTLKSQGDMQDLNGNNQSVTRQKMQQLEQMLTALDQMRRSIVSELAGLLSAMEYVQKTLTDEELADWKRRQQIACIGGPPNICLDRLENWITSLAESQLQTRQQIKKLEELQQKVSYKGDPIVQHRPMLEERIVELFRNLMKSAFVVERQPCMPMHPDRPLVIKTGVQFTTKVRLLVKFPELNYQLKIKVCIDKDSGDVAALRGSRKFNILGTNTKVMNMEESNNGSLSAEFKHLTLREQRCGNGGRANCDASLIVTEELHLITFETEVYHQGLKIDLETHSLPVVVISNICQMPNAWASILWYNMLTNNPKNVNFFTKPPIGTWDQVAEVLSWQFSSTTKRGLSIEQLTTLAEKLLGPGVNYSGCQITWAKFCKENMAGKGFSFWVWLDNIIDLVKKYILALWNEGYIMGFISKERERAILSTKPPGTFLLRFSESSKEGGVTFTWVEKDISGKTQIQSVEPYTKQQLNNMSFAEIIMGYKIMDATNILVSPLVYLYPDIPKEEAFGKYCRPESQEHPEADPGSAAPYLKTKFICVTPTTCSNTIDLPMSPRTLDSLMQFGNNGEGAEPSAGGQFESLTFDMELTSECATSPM
UniProt Q96SW2: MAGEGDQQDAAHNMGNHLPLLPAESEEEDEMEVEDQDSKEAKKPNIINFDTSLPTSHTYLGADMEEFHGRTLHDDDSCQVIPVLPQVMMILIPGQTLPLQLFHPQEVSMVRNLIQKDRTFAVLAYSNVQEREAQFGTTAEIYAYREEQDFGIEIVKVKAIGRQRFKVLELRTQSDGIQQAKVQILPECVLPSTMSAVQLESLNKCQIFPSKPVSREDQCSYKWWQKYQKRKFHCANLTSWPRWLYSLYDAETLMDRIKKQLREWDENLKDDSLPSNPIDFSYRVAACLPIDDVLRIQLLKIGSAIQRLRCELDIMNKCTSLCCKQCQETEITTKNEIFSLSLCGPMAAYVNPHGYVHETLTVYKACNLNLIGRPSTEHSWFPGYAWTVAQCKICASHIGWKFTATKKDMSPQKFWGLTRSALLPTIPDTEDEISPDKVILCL

Tests used:
[1] = molecular target: Signal transducer and activator of transcription 3 (Homo sapiens) (UniProt P40763); test: Inhibition of STAT3 phosphorylation in human BxPC-3 cells at 5 uM after 16 hrs by western blot analysis; format: cell-based
Outline: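 Cells were seeded in 6-well plates (BxPC-3 500 × 10^3, MIA PaCa-2 200 × 10^3 cells/well) and exposed to compound for 16 h. Lysis was at 4 °C by sonication in Tris/NaCl/Triton/SDS buffer, pH 7.4, with protease and phosphatase inhibitors. Lysates were run on SDS-PAGE, transferred to PVDF and probed for STAT3, pSTAT3 and NQO1 with GAPDH as loading control. Immunoblots were imaged on an Odyssey system.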

[2] = molecular target: Protein cereblon/Signal transducer and activator of transcription 3 (Homo sapiens, UniProt P40763+Q96SW2); test: Protac activity at CRBN/STAT3 in human BxPC-3 cells assessed as decrease in STAT3 expression level at 5 uM after 16 hrs by western blot analysis; format: cell-based
Outline: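 BxPC-3 cells seeded at 500 × 10^3 per well in 6-well plates, treated 16 h. Sonication lysis at 4 °C in Tris/NaCl/Triton/SDS buffer pH 7.4 with protease and phosphatase inhibitors, BCA protein assay, SDS-PAGE, PVDF transfer. Probed for STAT3, pSTAT3 and NQO1 with GAPDH loading control; fluorescent secondary detection.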

SMILES: CC(=O)c1cc2c(o1)C(=O)c1ccccc1C2=O [NAPABUCASIN]
- inhibition [1]: Active
- Activity [2]: Active
